The target in the series is CYP3A4 (Homo sapiens, UniProt P08684). In words: Rate of O-demethylation of ivermectin by pooled HLM. The class given is in vitro ADME. The conditions noted are these: 100 μM substrate; for Turnover rate (per metabolizing P450 enzyme): per CYP3A4.

By UniProt entry, the sequences of proteins in these tests, tags left out.
UniProt P08684, whole entry: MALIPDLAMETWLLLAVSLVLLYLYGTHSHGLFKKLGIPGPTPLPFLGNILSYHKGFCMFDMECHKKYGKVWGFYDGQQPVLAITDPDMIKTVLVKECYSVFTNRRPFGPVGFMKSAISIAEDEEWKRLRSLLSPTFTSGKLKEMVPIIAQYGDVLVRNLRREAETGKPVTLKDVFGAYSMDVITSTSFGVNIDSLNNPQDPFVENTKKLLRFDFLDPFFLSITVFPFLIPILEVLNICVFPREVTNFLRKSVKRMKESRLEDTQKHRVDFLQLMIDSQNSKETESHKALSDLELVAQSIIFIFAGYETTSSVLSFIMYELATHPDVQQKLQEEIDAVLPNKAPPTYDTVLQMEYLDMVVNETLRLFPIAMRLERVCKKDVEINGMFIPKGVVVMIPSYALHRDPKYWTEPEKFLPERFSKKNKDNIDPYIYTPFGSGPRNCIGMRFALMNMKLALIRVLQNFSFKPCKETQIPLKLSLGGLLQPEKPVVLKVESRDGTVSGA

This note sets out measurements from article PMC7856178 (Archives of biochemistry and biophysics, 2020).

As to Ivermectin, the “Turnover rate (per CPR)” value reads like this: (HLM-A) 8.0 ± 1.8 min⁻¹; (HLM-N1) 6.0 ± 1.2 min⁻¹; (HLM-N2) 6.3 ± 2.0 min⁻¹; (HLM-N3) 6.5 ± 2.3 min⁻¹. The “Turnover rate (per metabolizing P450 enzyme)” value is 4.9 ± 1.1 min⁻¹ (HLM-A), 4.7 ± 0.9 min⁻¹ (HLM-N1), 2.8 ± 0.9 min⁻¹ (HLM-N2) and 2.4 ± 0.9 min⁻¹ (HLM-N3).
